Yeast mating assay 2: variants of the scFv Ab-95

Values reported by Engelhart et al. 2022, doi:10.1038/s41597-022-01779-4 (FLAb copy).

The target is the same throughout: PDVDLGDISGINAS, from the HR2 region of SARS-CoV-2 spike.

Each scFv is VH, three GGGGS repeats, VL, as in the parent Ab-95, and differs from it in the CDRs of the light chain only.
VH: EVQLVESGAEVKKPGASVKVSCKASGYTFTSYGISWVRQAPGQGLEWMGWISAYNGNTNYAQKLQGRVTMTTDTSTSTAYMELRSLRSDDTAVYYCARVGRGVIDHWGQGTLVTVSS
VL: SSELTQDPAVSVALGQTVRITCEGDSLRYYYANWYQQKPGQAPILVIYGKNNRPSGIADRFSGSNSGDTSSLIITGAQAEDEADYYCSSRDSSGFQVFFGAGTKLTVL

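The library (AAYL52) carries one to three amino acid substitutions per variant, with no insertions or deletions. AlphaSeq pools MATa yeast showing the antibodies with MATalpha yeast showing the peptide. Binding brings cells together so that they mate, and sequencing counts the barcode pairs among the diploids. Read counts were normalised to the haploid input and turned into Kd by a linear fit to BCL2-family pairs of known affinity, for each replicate. Each pool was mated in three replicate cultures.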

Each variant is given by its three light chain CDRs, as the data file delimits them; those of the parent are EGDSLRYYYAN, GKNNRPS, SSRDSSGFQVF. This list gathers variants with a substitution at D91 (VL, numbered from residue 1). The Kd shown is the geometric mean over detected replicates; a lower Kd is a better binder. "no signal" means that the variant was in the library but no mating with the target was seen in any replicate; the authors take this as a sign of poor binding, and no number exists. Order: sorted from the lowest average up, undetected variants last.

CDR-L1,CDR-L2,CDR-L3,Kd,detected,control signals
EGDSLRYNYAN,GKNNRPS,SSRACSGFQVF,22 nM,3/3,5/9
EGDSLRYYYAY,GKNNRPS,SSRFSSGFQVF,28 nM,3/3,2/9
EGDSLRYYSAN,GNNNRPS,SSRISSGFQVF,29 nM,3/3,5/9
EGDSLRYYPAN,GKNNRPS,SSRSSSGNQVF,42 nM,3/3,3/9
EGDSLRGEYAN,GKNNRPS,SSRHSSGFQVF,43 nM,3/3,4/9
EGDSLREYYAN,GKNNRPS,SSRASSGFQVF,240 nM,3/3,2/9
EGDSLRYYYAN,GKNNRPS,WSRMSSGFQVF,340 nM,3/3,0/9
EGDSLFYYYAN,GKNNRPS,SSRSSSGFQVF,400 nM,3/3,1/9
IGDSLRYYYAN,GKNNRPS,ISRKSSGFQVF,440 nM,3/3,4/9
EGDSLRYYYAN,GKNFRPS,SSRSSSGFQVF,480 nM,3/3,4/9
EGDSLRYYYAN,GKNNRPS,SSRPSSGFTVF,530 nM,3/3,6/9
EGDSLRYYYAN,GKNNRPM,SSRVSSGFQVF,570 nM,3/3,2/9
EGDSLRYYYAN,GKNNRPS,QSRGSSGFGVF,800 nM,3/3,3/9
EGDSLRYYYAN,GKNNRPF,SSRLSSGRQVF,810 nM,3/3,1/9
EVDSLRYYYAN,GKNNDPS,SSRNSSGFQVF,820 nM,3/3,3/9
EGDALRYYYAN,GKGNRPS,SSRTSSGFQVF,930 nM,3/3,5/9
EGDSLRYLYAN,GKNSRPS,SSRCSSGFQVF,1.0 µM,2/3,5/9
EGDSLRKYYAN,GKNNRPS,SSRNPSGFQVF,1.2 µM,3/3,0/9
EGDSLRYYYAN,GKNNRPS,SWRPMSGFQVF,1.3 µM,3/3,3/9
EGDSLRYYYAN,GKNNRPS,SSRNSSGFQVL,1.3 µM,1/3,3/9
EGDSLRYYYAN,GKNNRVS,SSVTSSGFQVF,1.6 µM,2/3,0/9
EGDSLRYYYAN,GKSNRPS,SSRPPSGFQVF,1.8 µM,3/3,3/9
EGNSLRYYYAN,GVNNRPS,SSRGSSGFQVF,2.2 µM,1/3,1/9
EGDSPRYYKAN,GKNNRPS,SSRWSSGFQVF,2.5 µM,3/3,1/9
EGDSLRTYYAN,GKNNRPQ,SSRNSSGFQVF,2.6 µM,1/3,1/9
EGDSLRYYYAN,GKNNRPS,YSRWSSGTQVF,2.7 µM,3/3,3/9
EFDSLRYYYAN,GKNNRPS,SSRSSSGFCVF,4.2 µM,3/3,4/9
EGDSLRYYYAN,GKNNRPS,WSDCSSGFQVF,4.5 µM,3/3,0/9
EGDSLRYYYAN,IKNSRPS,SSRVSSGFQVF,4.9 µM,2/3,2/9
EGLSLRYYYAN,GKNNRPS,SSRASTGFQVF,5.1 µM,2/3,2/9
EGDFLRYYYTN,GKNNRPS,SSRISSGFQVF,5.2 µM,2/3,3/9
EGDSLRYYYAQ,GKNNRPS,SSRRSVGFQVF,6.1 µM,3/3,4/9
EPDSLRYYYAN,GKNNRPS,SSRPFSGFQVF,8.3 µM,1/3,2/9
EGDSLRYYYAN,GKNNRPI,SPRHSSGFQVF,8.8 µM,2/3,2/9
EVDSFRYYYAN,GKNNRPS,SSRKSSGFQVF,9.9 µM,2/3,2/9
EGDSLRYYYAN,GKNNVPS,SSRFSSGFQVI,12 µM,3/3,6/9
EGDSLWYYYAN,GKNNWPS,SSRQSSGFQVF,13 µM,1/3,6/9
EGDSLRYYYAN,GKNNRPS,SSMLSSGFQVL,16 µM,2/3,4/9
EGDKLRYYYAN,GKNNRPS,SSRIMSGFQVF,16 µM,3/3,6/9
EGDSLRYYYAN,GKNNRPS,SSRKSSGKQVF,18 µM,2/3,3/9
EGDKLRYYYAN,GKNNRPS,SHRSSSGFQVF,19 µM,2/3,2/9
EGDSLRYYYAP,GKNNRPS,SSRFLSGFQVF,20 µM,1/3,2/9
EGDSLRYYYKN,GKNNRPS,SSVASSGFQVF,22 µM,2/3,6/9
EGDSLRYLYAN,GKNNRPS,SSRMSSGVQVF,22 µM,3/3,0/9
EGDSLRYYYLN,GLNNRPS,SSRLSSGFQVF,46 µM,1/3,3/9
EGNSLRYYYQN,GKNNRPS,SSRASSGFQVF,61 µM,1/3,0/9
EGDSLRYYYAN,GKNNRPS,SSRASSAFQVF,61 µM,1/3,2/9
EGDSLRYYYAF,GKNNRHS,SSRHSSGFQVF,77 µM,1/3,3/9
WGDSLRYYYAN,GKNNRPS,SSRRSSGFQVY,150 µM,1/3,1/9
EGDSLRYYYAG,GKNNRPS,SSRVSSGFQVF,160 µM,1/3,2/9
EGDSLRYYYAN,PKNNRPS,SSRRSSGWQVF,170 µM,2/3,3/9
EGDSLRYYYAN,GKNNRDC,SSRKSSGFQVF,190 µM,2/3,2/9
EGDSLRIYYAN,GKNNRPS,WSRTSSGFQVF,190 µM,1/3,1/9
EGDSLRYYYAN,GKNNRPS,SSRQINGFQVF,no signal,0/3,1/9
EGDSLRYYYAN,GKNNSPS,SSIMSSGFQVF,no signal,0/3,1/9
EGDSLRYYYAP,GKNNRPS,SSRSSSCFQVF,no signal,0/3,4/9
EGDSLRYYYAN,MKNNRES,SSRMSSGFQVF,no signal,0/3,4/9
EGDSLRYYYDN,GKNNRPS,SSRKSFGFQVF,no signal,0/3,4/9
EGDSLRYYYAN,GKNSRPS,CSRISSGFQVF,no signal,0/3,0/9

The first 6 variants above that were never detected:

{"CDR-L1": "EGDSLRYYYAN", "CDR-L2": "GKNNRPS", "CDR-L3": "SSRQINGFQVF", "Kd": "no signal", "detected": "0/3", "control signals": "1/9"}
{"CDR-L1": "EGDSLRYYYAN", "CDR-L2": "GKNNSPS", "CDR-L3": "SSIMSSGFQVF", "Kd": "no signal", "detected": "0/3", "control signals": "1/9"}
{"CDR-L1": "EGDSLRYYYAP", "CDR-L2": "GKNNRPS", "CDR-L3": "SSRSSSCFQVF", "Kd": "no signal", "detected": "0/3", "control signals": "4/9"}
{"CDR-L1": "EGDSLRYYYAN", "CDR-L2": "MKNNRES", "CDR-L3": "SSRMSSGFQVF", "Kd": "no signal", "detected": "0/3", "control signals": "4/9"}
{"CDR-L1": "EGDSLRYYYDN", "CDR-L2": "GKNNRPS", "CDR-L3": "SSRKSFGFQVF", "Kd": "no signal", "detected": "0/3", "control signals": "4/9"}
{"CDR-L1": "EGDSLRYYYAN", "CDR-L2": "GKNSRPS", "CDR-L3": "CSRISSGFQVF", "Kd": "no signal", "detected": "0/3", "control signals": "0/9"}

In this assay the parent's reference entry averaged 200 nM; its copy inside this library read 180 nM. Nonspecific signal, from three strains lacking the peptide, appeared in 28% of pairings of library AAYL52, centred on 8.2 µM (5% of these signals below 800 nM); values are not corrected for it. For each scFv, signals with the empty controls are counted beside the result.